Binding of CDR-mutated scFvs to a peptide of the spike HR2 region

Source: Engelhart et al. 2022 (doi:10.1038/s41597-022-01779-4), MIT Lincoln Laboratory and A-Alpha Bio; data file from the FLAb repository.

All variants were tested on one target, the spike HR2 peptide PDVDLGDISGINAS (SARS-CoV-2).

Parent scFv Ab-95: VH joined to VL by a (GGGGS)3 linker. Changes lie in the light chain CDRs alone.
VH: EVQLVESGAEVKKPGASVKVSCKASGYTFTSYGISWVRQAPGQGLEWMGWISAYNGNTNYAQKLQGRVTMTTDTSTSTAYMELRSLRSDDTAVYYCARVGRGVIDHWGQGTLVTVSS
VL: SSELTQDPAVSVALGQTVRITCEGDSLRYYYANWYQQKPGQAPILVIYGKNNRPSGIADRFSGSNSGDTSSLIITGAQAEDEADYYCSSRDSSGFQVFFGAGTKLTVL

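The starting antibody came from a phage panning campaign against this peptide. Variants in AAYL52 differ from the parent at up to three CDR positions; double and triple changes were sampled at random. AlphaSeq pools MATa yeast showing the antibodies with MATalpha yeast showing the peptide. After mating in shaken culture at 30 °C for 16 h, diploids were selected and their barcode pairs sequenced. Scores were corrected for input abundance and mapped to Kd with protein pairs of known affinity run in the same pool. Mating was done three times.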

The whole VL of each variant is written out. Affinities are written as log10 Kd with Kd in nM; a lower number is a better binder. Replicates are averaged; those with no signal do not enter the mean. "n.d." means that the variant was in the library but no mating with the target was seen in that replicate; the authors take this as a sign of poor binding, and no number exists.

{"VL": "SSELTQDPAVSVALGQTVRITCESDSLRYYYANWYQQKPGQAPILVIYGSNNRTSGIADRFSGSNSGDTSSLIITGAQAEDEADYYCSSRDSSGFQVFFGAGTKLTVL", "replicates, log10 nM": "n.d. n.d. n.d.", "log10 Kd (nM), mean": "n.d.", "signal with controls": "2 of 9 (4.64)"}
{"VL": "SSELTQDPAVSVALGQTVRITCEGDSLRYGYAYWYQQKPGQAPILVIYGKNNRPSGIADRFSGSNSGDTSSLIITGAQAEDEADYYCSSRDSSGFQVPFGAGTKLTVL", "replicates, log10 nM": "2.84 n.d. 3.65", "log10 Kd (nM), mean": "3.24", "signal with controls": "1 of 9 (3.12)"}
{"VL": "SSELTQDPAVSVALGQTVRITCEGNCLRYYYANWYQQKPGQAPILVIYGKNNRPFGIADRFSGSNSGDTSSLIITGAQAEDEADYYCSSRDSSGFQVFFGAGTKLTVL", "replicates, log10 nM": "n.d. 5.63 3.65", "log10 Kd (nM), mean": "4.64", "signal with controls": "2 of 9 (4.04)"}
{"VL": "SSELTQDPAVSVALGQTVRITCEGDSLRYYYANWYQQKPGQAPILVIYGKNNRPSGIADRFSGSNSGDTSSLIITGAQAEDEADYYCSSRDPCGFQTFFGAGTKLTVL", "replicates, log10 nM": "n.d. n.d. n.d.", "log10 Kd (nM), mean": "n.d.", "signal with controls": "2 of 9 (3.42)"}
{"VL": "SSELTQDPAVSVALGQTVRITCEGDSLRYGYANWYQQKPGQAPILVIYGKNNRPSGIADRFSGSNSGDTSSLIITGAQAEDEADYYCSSLDSSGFQVFFGAGTKLTVL", "replicates, log10 nM": "1.31 1.55 0.88", "log10 Kd (nM), mean": "1.25", "signal with controls": "4 of 9 (3.93)"}
{"VL": "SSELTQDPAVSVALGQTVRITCEGDSLRYYYRAWYQQKPGQAPILVIYGKNNRPSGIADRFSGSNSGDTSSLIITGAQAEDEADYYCSSRDSSGFQVFFGAGTKLTVL", "replicates, log10 nM": "2.84 2.77 2.69", "log10 Kd (nM), mean": "2.77", "signal with controls": "4 of 9 (3.56)"}
{"VL": "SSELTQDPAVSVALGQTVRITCEGDSLREYYANWYQQKPGQAPILVIYGKNNRLSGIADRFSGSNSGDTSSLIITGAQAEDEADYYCASRDSSGFQVFFGAGTKLTVL", "replicates, log10 nM": "2.74 3.24 2.86", "log10 Kd (nM), mean": "2.95", "signal with controls": "1 of 9 (5.57)"}
{"VL": "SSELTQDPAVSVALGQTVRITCEGDSLTYYYANWYQQKPGQAPILVIYGKNNRCSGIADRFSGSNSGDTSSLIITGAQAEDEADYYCSSRDNSGFQVFFGAGTKLTVL", "replicates, log10 nM": "4.10 3.11 n.d.", "log10 Kd (nM), mean": "3.61", "signal with controls": "2 of 9 (3.44)"}
{"VL": "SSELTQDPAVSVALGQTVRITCEMDSLRGYYANWYQQKPGQAPILVIYGKNNRPSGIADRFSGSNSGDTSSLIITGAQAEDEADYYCSSRDSSGFQVIFGAGTKLTVL", "replicates, log10 nM": "2.92 2.67 2.66", "log10 Kd (nM), mean": "2.75", "signal with controls": "1 of 9 (5.22)"}
{"VL": "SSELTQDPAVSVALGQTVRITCEGDSLRYYYANWYQQKPGQAPILVIYGKNNKPSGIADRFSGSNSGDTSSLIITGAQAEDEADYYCSSRDSSGFQVFFGAGTKLTVL", "replicates, log10 nM": "2.47 2.57 2.05", "log10 Kd (nM), mean": "2.36", "signal with controls": "4 of 9 (4.65)"}
{"VL": "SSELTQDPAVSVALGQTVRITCEWDSLRYYYANWYQQKPGQAPILVIYGKLNRPSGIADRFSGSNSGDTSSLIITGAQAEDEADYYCSSRDSSGFQVWFGAGTKLTVL", "replicates, log10 nM": "n.d. 3.96 n.d.", "log10 Kd (nM), mean": "3.96", "signal with controls": "3 of 9 (3.48)"}
{"VL": "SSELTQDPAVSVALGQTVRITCEGDSLRYYSANWYQQKPGQAPILVIYGKNNRPSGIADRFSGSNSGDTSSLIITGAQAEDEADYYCSCRDSSPFQVFFGAGTKLTVL", "replicates, log10 nM": "3.50 n.d. n.d.", "log10 Kd (nM), mean": "3.50", "signal with controls": "2 of 9 (3.69)"}
{"VL": "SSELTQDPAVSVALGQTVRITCEIDSLRYYYANWYQQKPGQAPILVIYGKNNRPSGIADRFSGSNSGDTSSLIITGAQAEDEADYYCSGRDSSGFQVTFGAGTKLTVL", "replicates, log10 nM": "1.79 1.86 1.10", "log10 Kd (nM), mean": "1.58", "signal with controls": "4 of 9 (4.25)"}
{"VL": "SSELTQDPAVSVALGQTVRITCEGFSLRYYYADWYQQKPGQAPILVIYGKRNRPSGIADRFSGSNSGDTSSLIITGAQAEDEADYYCSSRDSSGFQVFFGAGTKLTVL", "replicates, log10 nM": "n.d. 4.24 n.d.", "log10 Kd (nM), mean": "4.24", "signal with controls": "3 of 9 (3.44)"}
{"VL": "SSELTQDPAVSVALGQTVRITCYGDSLRYYDANWYQQKPGQAPILVIYGKNNRPSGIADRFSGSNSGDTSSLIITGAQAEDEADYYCLSRDSSGFQVFFGAGTKLTVL", "replicates, log10 nM": "1.70 1.56 1.42", "log10 Kd (nM), mean": "1.56", "signal with controls": "3 of 9 (3.56)"}
{"VL": "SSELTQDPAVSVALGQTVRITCEGDSLRYYYANWYQQKPGQAPILVIYGKNNTNSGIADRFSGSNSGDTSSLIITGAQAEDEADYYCSSRDKSGFQVFFGAGTKLTVL", "replicates, log10 nM": "2.13 1.96 1.93", "log10 Kd (nM), mean": "2.01", "signal with controls": "1 of 9 (4.13)"}
{"VL": "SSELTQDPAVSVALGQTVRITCEGDSLRYYYADWYQQKPGQAPILVIYGKNNRPSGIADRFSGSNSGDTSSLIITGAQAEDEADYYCSLRDSSQFQVFFGAGTKLTVL", "replicates, log10 nM": "3.81 3.57 n.d.", "log10 Kd (nM), mean": "3.69", "signal with controls": "3 of 9 (3.98)"}
{"VL": "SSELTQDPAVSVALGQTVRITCEGDSLRYYYANWYQQKPGQAPILVIYGKCNEPSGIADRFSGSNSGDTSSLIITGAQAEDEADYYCSSRCSSGFQVFFGAGTKLTVL", "replicates, log10 nM": "4.33 n.d. 4.00", "log10 Kd (nM), mean": "4.16", "signal with controls": "3 of 9 (3.70)"}

The opening 3 entries, copied out:

{"VL": "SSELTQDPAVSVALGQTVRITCESDSLRYYYANWYQQKPGQAPILVIYGSNNRTSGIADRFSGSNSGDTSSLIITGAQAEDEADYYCSSRDSSGFQVFFGAGTKLTVL", "replicates, log10 nM": "n.d. n.d. n.d.", "log10 Kd (nM), mean": "n.d.", "signal with controls": "2 of 9 (4.64)"}
{"VL": "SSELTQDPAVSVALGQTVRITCEGDSLRYGYAYWYQQKPGQAPILVIYGKNNRPSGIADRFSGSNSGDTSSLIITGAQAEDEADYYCSSRDSSGFQVPFGAGTKLTVL", "replicates, log10 nM": "2.84 n.d. 3.65", "log10 Kd (nM), mean": "3.24", "signal with controls": "1 of 9 (3.12)"}
{"VL": "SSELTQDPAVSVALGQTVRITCEGNCLRYYYANWYQQKPGQAPILVIYGKNNRPFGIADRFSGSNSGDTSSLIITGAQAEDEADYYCSSRDSSGFQVFFGAGTKLTVL", "replicates, log10 nM": "n.d. 5.63 3.65", "log10 Kd (nM), mean": "4.64", "signal with controls": "2 of 9 (4.04)"}

Empty control strains, which show no peptide, gave a signal in 28% of pairings with library AAYL52; the median was 3.91 and 95% of these signals were weaker than 2.90. No background was subtracted. The control count says in how many pairings with the empty strains this scFv gave a signal, with their mean in brackets. In this assay the parent's reference entry averaged 2.31; its copy inside this library read 2.25.